Assay results from ChEMBL document CHEMBL1136170, “5-aryl thiazolidine-2,4-diones: discovery of PPAR dual alpha/gamma agonists as antidiabetic agents” (Bioorg Med Chem Lett, 2003).

Tests used:
[1] = biological target: T1, Peroxisome proliferator-activated receptor delta (Homo sapiens, UniProt Q03181)
T1 sequence (Q03181 whole entry): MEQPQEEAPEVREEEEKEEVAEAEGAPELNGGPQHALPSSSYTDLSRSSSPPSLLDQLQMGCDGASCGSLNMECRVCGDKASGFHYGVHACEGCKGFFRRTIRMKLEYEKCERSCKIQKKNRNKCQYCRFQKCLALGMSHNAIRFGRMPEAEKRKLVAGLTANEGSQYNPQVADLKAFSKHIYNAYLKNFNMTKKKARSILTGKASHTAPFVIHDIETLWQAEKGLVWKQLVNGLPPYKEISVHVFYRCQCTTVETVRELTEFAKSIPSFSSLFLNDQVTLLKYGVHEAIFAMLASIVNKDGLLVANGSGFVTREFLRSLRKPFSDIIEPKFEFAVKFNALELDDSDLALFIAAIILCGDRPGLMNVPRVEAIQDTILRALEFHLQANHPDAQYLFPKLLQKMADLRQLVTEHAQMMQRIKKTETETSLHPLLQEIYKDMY

[2] = biological target: T1, Peroxisome proliferator-activated receptor delta; remark: listed apart in the source

## CCCc1cc(Oc2ccccc2)ccc1OCCCOc1cccc(C2SC(=O)NC2=O)c1 (configuration not stated)
[1]
  IC50: > 10 µM
[2]
  EC50: > 3 µM
